The values that follow come from patent publication US20240150335A1, “FUSED RING DERIVATIVES CONTAINING 1,4-OXAZEPANE” (MEDSHINE DISCOVERY INC., priority 2021, published 2024).

The chains behind the UniProt entries cited, without tags or fusion partners. Residues count along the entry.
UniProt P53634, 395-463: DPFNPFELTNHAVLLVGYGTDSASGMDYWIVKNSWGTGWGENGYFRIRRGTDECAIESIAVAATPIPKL
UniProt P53634, 25-134: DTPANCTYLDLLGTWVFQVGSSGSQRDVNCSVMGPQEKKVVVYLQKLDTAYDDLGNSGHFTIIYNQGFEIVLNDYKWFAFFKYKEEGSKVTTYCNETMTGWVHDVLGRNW
UniProt P53634, 231-394: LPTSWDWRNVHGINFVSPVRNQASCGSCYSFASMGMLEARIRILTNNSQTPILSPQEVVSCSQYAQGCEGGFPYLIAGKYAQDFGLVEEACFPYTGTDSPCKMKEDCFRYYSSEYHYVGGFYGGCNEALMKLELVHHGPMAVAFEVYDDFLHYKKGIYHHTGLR

Molecules are shown by their SMILES.

Experiment [1] concerns the target Recombinant human cathepsin C/DPP1. Description: Inhibition effect test of DPP1 enzyme activity. In kind it is biochemical. Particulars: recombinant human cathepsin C/DPP1, Gly-Arg-AMC substrate 12.5 μM, 25° C. 60 minutes; read-out: IC50, inhibitory activity on DPP1 enzyme. The procedure:
Experimental Example 1: Inhibition Effect Test of DPP1 Enzyme Activity
Recombinant human cathepsin C/DPP1 was purchased from R&D Systems;
Recombinant human cathepsin L (rhCathepsin L) was purchased from R&D Systems;
Gly-Arg-AMC (hydrochloride) was purchased from CAYMAN CHEMICAL COMPANY.
1× activation buffer: 5 mM DTT 0.01% (V/V) Triton X-100 (preparation for current use);
1× assay buffer: 50 mM NaCl 5 mM DTT 0.01% (V/V) Triton X-100 (preparation for current use);
1× activation buffer was used to dilute recombinant human cathepsin C/DPP1 enzyme and recombinant human cathepsin L (rhCathepsin L) enzyme to concentrations of 2 ng/μL and 0.4 ng/μL, respectively; equal volume of two working solutions of enzyme was taken, mixed well and incubated at 25° C. for 60 minutes;
the compounds to be tested were 5-fold diluted with a multi-channel pipette to the 8th concentration, i.e., diluted from 1 mM to 12.8 nM. Then 1× experimental buffer was used to dilute each compound to be tested by gradient into a 4% DMSO working solution. The working solution was added to corresponding wells for 5 μL/well, and duplicate experiment was set. The mixture was centrifuged at 1000 rpm for 1 minute; […]
after incubation, fluorescence detection was performed using a multi-label analyzer with an excitation wavelength of 360 nm and an emission wavelength of 460 nm. […]

For experiment [2], the target named is DPP1 of U937 cells (Homo sapiens (Human), UniProt P53634). Description: Activity test of inhibiting DPP1 in U937 cells. Particulars: Gly-Phe-AFC probe, read-out: IC50, inhibitory activity on DPP1 of U937 cells. In kind it is cell-based. How it is done: Experimental Example 2: Activity Test of Inhibiting DPP1 in U937 Cells
Experimental Materials: • 1) Experimental reagents and consumables […]
3) the plate was read, and the data were analyzed: • (1) plate reading: after the cell incubation was completed, the cell plate was taken out, and the plate was read on Victor Nivo. […]

Usually IC50 stands for the midpoint of a concentration-inhibition curve. With `Cn1c(=O)oc2ccc(-c3ccc(C[C@@H](C#N)NC(=O)[C@@H]4CNCCCO4)c(F)c3)cc21` [Compound 6], the results for the IC50 in experiment [1] and in experiment [2] were 840 pM and 640 pM, respectively.
